The values below come from PubChem BioAssay AID803 (The Scripps Research Institute Molecular Screening Center, 2007).

Amino acid sequences for entries named in this document (tags omitted).
UniProt O43603, whole entry: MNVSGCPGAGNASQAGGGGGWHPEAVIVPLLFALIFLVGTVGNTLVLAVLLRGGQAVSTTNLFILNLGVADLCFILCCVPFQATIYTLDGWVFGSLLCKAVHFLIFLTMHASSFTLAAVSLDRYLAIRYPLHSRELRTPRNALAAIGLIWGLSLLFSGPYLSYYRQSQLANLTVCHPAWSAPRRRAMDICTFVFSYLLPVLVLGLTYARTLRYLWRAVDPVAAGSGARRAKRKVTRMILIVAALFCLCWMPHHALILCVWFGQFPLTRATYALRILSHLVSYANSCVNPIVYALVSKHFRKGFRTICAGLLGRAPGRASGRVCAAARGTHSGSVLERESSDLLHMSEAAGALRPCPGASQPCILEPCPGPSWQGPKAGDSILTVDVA

The structures appear in SMILES notation. Only a part is listed here, and it is no random draw. Some of these compounds have results that are not shown, active ones among them. The source made the active and inactive calls. Cut-off read from the data, not from the text of the source: active = activation above about 5% (passing the limit was not always enough); inactive = the rest.

The target in the assay is Galanin receptor type 2 (Homo sapiens) (UniProt O43603). Put plainly: GALR2 receptor agonists, primary screen, cell-based (AID 803).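 Note: 0% = vehicle buffer wells and 100% = reference agonist at full effect.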 The note with it: GALR2-expressing cells, agonist activation read-out; at 5.6 µM; active compounds read high.
For `CCN1CCCC(OC(=O)C2(O)c3ccccc3C=Cc3ccccc32)C1` (stereo not given), the activation is inactive: -0.26%.

As to `CN(C)C1CCCC1OC(=O)C(O)(c1ccccc1)c1ccccc1` (stereo not given), the activation was inactive: -0.42%.

As to `CC(C)N1C(=O)CC2(CCN(CCOC(=O)C(O)(c3ccccc3)c3ccccc3)CC2)C1=O`, the activation is inactive: -0.7%.

Turning to `CN(C)c1cccc(C(=O)NCC2(N(C)C)CCCCC2)c1`, the activation was inactive: -1.04%.

For `O=C(OC1CN2CCC1CC2)C(CO)(c1ccccc1)c1ccccc1` (stereo not given), the activation is inactive: -0.39%.
